Measured values reported in patent publication US20050214899.

Experiments:
MQDWLTFQKKHI = molecular target: T1, MQDWLTFQKKHI
T1 chain: MQDWLTFQKKHI

MADWLTFQKKHI = molecular target: T2, MADWLTFQKKHI
T2 chain: MADWLTFQKKHI

B1: MetAP-M206T-Q233T (protein)
chain: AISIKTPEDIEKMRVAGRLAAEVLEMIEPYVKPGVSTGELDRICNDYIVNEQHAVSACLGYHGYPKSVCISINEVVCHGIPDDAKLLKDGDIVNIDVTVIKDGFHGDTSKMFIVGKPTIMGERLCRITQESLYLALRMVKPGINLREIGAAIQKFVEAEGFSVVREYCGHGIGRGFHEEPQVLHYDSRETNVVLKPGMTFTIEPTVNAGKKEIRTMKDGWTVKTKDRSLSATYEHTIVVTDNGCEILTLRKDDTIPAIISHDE
Specific activity (unit/mg) (MQDWLTFQKKHI): 0.25 unit/mg | Specific activity (unit/mg) (MADWLTFQKKHI): 1 unit/mg
